Data on nine compounds can be found in PubChem BioAssay AID861 (The Scripps Research Institute Molecular Screening Center, 2007).

Chains of the proteins cited; added tags and fusions are not shown.
UniProt O00206, whole entry: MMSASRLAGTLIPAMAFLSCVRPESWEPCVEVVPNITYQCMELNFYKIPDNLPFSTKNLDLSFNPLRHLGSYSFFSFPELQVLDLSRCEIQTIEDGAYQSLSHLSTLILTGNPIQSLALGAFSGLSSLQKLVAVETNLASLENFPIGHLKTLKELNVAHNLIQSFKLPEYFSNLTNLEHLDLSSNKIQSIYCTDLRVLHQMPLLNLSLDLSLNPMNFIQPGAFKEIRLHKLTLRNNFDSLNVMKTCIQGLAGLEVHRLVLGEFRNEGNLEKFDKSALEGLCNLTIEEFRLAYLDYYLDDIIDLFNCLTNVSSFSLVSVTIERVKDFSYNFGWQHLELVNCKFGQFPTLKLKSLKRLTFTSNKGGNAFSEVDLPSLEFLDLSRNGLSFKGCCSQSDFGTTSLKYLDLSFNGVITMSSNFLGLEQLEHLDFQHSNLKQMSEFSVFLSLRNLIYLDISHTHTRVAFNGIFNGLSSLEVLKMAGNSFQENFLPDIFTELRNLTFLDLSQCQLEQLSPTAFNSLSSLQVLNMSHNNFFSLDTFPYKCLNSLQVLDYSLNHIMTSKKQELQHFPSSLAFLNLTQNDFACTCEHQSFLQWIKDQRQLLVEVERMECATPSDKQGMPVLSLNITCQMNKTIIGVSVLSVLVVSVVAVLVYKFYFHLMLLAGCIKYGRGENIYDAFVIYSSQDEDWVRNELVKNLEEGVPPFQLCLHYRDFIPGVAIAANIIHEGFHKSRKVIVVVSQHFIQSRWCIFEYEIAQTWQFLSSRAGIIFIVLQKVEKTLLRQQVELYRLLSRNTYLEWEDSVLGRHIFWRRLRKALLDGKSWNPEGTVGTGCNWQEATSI

SMILES strings stand for the structures. The entries are a selection whose mix differs from that of the whole data set. Some of these compounds have results that are not shown, active ones among them. The source made the active and inactive calls. Rule as the data show it: active = inhibition above about 25%; inactive = the rest.

This assay concerns the target Toll-like receptor 4 (Homo sapiens) + Myeloid differentiation primary response protein MyD88 (Homo sapiens) (UniProt O00206+Q99836). The assay is described as follows: disruptors of TLR4 binding to MyD88 – cell-based, HeLa CL3-4, BLA complementation, FRET ratio, primary screen (AID 861).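 Also: 0% = vehicle and 100% = reference inhibitor.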 Conditions: HeLa CL3-4 TLR4/MyD88 BLA complementation, at 8.4 µM, stronger effect = higher value.
For orientation: inhibition means the change of the read-out against control, counted positive when it falls. In the case of `O=C(OC1CN2CCC1CC2)C(CO)(c1ccccc1)c1ccccc1` (centres undefined), the inhibition was inactive: 16.2%. The same measure for `CN(C)c1cccc(C(=O)NCC2(N(C)C)CCCCC2)c1`: inactive: 3.13%; for `COc1cccc(C(=O)NCC2(N3CCCCC3)CCCCC2)c1`: inactive: 6.08%; for `Cc1ccccc1C(=O)NCC1(N2CCCCC2)CCCCC1`: inactive: 5.72%. Take `CN(C)C1CCCC1OC(=O)C(O)(c1ccccc1)c1ccccc1` (centres undefined): the inhibition was inactive: -7.19%. As for `CCN1CCCC(OC(=O)C2(O)c3ccccc3C=Cc3ccccc32)C1` (centres undefined), the inhibition was inactive: -5.4%. In the case of `C=CCN1CCN(CCOC(=O)C(O)(c2ccccc2)c2ccccc2)CC1`, the inhibition is inactive: 2.31%. In the case of `O=C(NCC1(N2CCCCC2)CCCCC1)c1cc([N+](=O)[O-])ccc1Cl`, the inhibition is inactive: -16.1%. On to `CC(C)N1C(=O)CC2(CCN(CCOC(=O)C(O)(c3ccccc3)c3ccccc3)CC2)C1=O`, for which the inhibition is inactive: 0.9%.
